This assay concerns the target JAK3 enzyme (Homo sapiens (Human), UniProt P52333). Description: JAK Caliper enzyme assay at 1 mM ATP. The conditions noted are these: read-out: JAK3 (1 mM ATP) IC50. Format: biochemical. The method, then:
JAK Caliper Enzyme Assay at 4 μM or 1 mM ATP
Test article was solubilized in dimethyl sulfoxide (DMSO) to a stock concentration of 30 mM. An 11-point half log dilution series was created in DMSO with a top concentration of 600 μM. […] The compound plates were diluted 1 to 60 resulting in a top final assay compound concentration of 10 μM and a 2% DMSO concentration.
Test article and assay controls were added to a 384-well plate. Reaction mixtures contained 20 mM HEPES, pH 7.4, 10 mM magnesium chloride, 0.01% bovine serum albumin (BSA), 0.0005% Tween 20, 4 μM or 1 mM ATP and 1 μM peptide substrate. […] The assays were initiated by the addition 1 nM JAK3 enzyme and were incubated at room temperature 75 minutes for JAK3. Enzyme concentrations and incubation times were optimized for each new enzyme preps and were modified slightly over time to ensure 20%-30% phosphorylation. The assays were stopped with a final concentration of 10 mM EDTA, 0.1% Coating Reagent and 100 mM HEPES, pH=7.4. The assay plates were placed on a Caliper Life Science Lab Chip 3000 (LC3000) instrument, and each well was sampled using appropriate separation conditions to measure the unphosphorylated and phosphorylated peptide.

Amino acid sequences for entries named in this document (tags omitted).
UniProt P52333, whole entry, species assumed: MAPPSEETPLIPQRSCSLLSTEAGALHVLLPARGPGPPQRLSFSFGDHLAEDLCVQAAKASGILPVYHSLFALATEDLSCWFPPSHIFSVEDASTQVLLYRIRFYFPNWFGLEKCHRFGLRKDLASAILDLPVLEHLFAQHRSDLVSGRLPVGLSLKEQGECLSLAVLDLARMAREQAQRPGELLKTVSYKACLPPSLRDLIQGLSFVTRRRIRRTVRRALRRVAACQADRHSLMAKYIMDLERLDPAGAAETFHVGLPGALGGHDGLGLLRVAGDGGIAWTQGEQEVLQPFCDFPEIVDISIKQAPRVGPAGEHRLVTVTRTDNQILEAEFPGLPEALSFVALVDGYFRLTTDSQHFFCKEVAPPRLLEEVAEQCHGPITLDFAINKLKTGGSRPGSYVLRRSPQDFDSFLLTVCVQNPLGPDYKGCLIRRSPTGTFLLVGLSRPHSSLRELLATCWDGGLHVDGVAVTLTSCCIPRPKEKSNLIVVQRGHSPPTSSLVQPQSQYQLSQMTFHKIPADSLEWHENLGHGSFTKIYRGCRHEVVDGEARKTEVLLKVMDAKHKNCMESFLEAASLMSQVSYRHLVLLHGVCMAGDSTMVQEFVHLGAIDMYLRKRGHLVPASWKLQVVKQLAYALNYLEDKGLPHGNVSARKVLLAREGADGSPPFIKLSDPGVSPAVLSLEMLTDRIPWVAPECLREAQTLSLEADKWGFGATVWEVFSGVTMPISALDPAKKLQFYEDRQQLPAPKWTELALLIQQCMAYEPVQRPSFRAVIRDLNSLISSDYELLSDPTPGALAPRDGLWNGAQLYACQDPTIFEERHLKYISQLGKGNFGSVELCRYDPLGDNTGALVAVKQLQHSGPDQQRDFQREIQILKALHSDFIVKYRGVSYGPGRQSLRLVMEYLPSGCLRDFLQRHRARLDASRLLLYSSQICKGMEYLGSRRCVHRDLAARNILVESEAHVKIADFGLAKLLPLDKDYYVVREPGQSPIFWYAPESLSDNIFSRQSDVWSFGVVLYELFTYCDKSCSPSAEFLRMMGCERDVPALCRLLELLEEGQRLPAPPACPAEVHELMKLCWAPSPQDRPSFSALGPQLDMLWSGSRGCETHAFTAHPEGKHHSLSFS

Among the data in patent publication US9617258B2, “Pyrrolo[2,3-d]pyrimidinyl, pyrrolo[2,3-b]pyrazinyl and pyrrolo[2,3-d]pyridinyl acrylamides” (Pfizer Inc., priority 2013, dated 2017) are IC50 values, retold here.

Broadly, the IC50 is the concentration that inhibits the measured activity by half.

Regarding `C=CC(=O)N[C@H]1CCN(c2cnc3[nH]cc(C(=O)NC(C)C)c3n2)C1` [Example 194, 2-[(3S)-3-(acryloylamino)pyrrolidin-1-yl]-N-(propan-2-yl)-5H-pyrrolo[2,3-b]pyrazine-7-carboxamide], the IC50 turned out to be 1.66 µM.
